The values that follow come from ChEMBL document CHEMBL1145861, “Selective protein tyrosine phosphatase 1B inhibitors: targeting the second phosphotyrosine binding site with non-carboxylic acid-containing ligands” (J Med Chem, 2003).

In this assay the target is T1, Tyrosine-protein phosphatase non-receptor type 1 (Homo sapiens, UniProt P18031).
T1 sequence (P18031 whole entry): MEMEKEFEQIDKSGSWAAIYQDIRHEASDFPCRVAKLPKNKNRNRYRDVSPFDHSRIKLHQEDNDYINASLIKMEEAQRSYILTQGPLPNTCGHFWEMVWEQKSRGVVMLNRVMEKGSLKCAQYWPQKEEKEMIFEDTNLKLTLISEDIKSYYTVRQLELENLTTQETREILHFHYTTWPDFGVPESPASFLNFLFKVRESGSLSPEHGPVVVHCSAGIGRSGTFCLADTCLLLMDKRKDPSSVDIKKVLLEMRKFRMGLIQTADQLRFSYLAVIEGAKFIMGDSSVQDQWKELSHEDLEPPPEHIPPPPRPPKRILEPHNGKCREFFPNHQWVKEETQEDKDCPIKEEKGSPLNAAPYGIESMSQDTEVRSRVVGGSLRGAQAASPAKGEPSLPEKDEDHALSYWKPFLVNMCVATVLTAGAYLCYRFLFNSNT
Briefly: Inhibitory activity against Protein-tyrosine phosphatase 1B (PTP 1B) was determined.

As for `CCc1cc(CC(NC(C)=O)C(=O)NCCCCOc2cccc(O)c2C(=O)OC)ccc1N(C(=O)C(=O)O)c1ccccc1C(=O)O` (stereo unspecified), the affinity corresponds to a Ki of 18 nM.

A word on the Ki: it is a measure of affinity in units of concentration, obtained from inhibition or displacement. Read a low Ki as higher affinity.
